Experimental data reported in ChEMBL document CHEMBL1124148 (J Med Chem, 1988).
pIC50: −log10 of the molar value.

How the values were obtained:
[1] = target: T1, Dihydrofolate reductase (Mus musculus, UniProt P00375)
T1 sequence (P00375 whole entry): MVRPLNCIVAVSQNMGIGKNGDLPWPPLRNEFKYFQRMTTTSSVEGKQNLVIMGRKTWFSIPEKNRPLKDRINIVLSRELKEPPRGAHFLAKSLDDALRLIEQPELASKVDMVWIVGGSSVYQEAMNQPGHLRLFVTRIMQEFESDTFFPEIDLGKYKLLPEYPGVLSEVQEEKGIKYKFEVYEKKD

[2] = tested on: L1210 ( R81); experiment: Inhibitory concentration against growth of L1210/R81 cell line; format: functional, cell-based; conditions: Mus musculus
[3] = tested on: L1210; experiment: Inhibitory concentration against growth of L1210 cell line; format: functional, cell-based; conditions: Mus musculus

Row | pIC50 [2] | pIC50 [3] | Compound | pIC50 [1]
1 |  |  | Nc1nc(N)c2nc(CNc3ccc(C(=O)NC(CCCNC(=O)c4ccccc4C(=O)O)C(=O)O)cc3)cnc2n1 (centres undefined) | 7.28
2 | 4.27 | 7.43 | Nc1nc(N)c2nc(CNc3ccc(C(=O)NC(CCCNC(=O)CCC(=O)O)C(=O)O)cc3)cnc2n1 (centres undefined) | 7.49
